Assay results as given in patent EP4834897A1, “COMPOUNDS WITH TWO AZAHETEROCYCLES SUBSTITUTED ISOINDOLINONE SKELETON AND USES THEREOF” (dated 2026).

Amino acid sequences for entries named in this document (tags omitted).
UniProt P15170, whole entry: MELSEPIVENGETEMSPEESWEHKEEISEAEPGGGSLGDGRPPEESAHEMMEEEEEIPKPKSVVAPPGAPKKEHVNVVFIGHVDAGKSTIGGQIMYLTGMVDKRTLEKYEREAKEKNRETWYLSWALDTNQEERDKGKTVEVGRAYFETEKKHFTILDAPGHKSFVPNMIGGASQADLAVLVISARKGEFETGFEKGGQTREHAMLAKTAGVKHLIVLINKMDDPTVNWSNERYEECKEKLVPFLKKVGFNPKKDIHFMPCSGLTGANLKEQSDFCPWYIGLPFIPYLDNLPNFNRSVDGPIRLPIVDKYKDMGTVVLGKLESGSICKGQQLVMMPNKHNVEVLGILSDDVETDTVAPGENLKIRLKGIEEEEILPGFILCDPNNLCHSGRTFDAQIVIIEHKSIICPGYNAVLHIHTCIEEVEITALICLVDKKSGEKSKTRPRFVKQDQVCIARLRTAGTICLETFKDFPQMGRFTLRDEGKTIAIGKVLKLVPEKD
UniProt Q96SW2, whole entry: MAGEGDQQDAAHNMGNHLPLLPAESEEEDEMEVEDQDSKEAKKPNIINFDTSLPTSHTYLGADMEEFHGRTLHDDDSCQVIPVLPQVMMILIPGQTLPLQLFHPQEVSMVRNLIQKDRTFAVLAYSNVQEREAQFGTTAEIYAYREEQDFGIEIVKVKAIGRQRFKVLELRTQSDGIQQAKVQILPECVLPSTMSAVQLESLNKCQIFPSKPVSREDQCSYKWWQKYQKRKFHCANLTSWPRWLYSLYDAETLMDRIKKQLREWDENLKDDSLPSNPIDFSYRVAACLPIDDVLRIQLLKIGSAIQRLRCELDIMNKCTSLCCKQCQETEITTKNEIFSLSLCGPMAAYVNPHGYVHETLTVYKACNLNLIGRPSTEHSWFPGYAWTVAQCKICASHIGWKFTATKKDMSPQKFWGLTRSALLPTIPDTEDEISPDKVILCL
UniProt Q9UKT9, whole entry: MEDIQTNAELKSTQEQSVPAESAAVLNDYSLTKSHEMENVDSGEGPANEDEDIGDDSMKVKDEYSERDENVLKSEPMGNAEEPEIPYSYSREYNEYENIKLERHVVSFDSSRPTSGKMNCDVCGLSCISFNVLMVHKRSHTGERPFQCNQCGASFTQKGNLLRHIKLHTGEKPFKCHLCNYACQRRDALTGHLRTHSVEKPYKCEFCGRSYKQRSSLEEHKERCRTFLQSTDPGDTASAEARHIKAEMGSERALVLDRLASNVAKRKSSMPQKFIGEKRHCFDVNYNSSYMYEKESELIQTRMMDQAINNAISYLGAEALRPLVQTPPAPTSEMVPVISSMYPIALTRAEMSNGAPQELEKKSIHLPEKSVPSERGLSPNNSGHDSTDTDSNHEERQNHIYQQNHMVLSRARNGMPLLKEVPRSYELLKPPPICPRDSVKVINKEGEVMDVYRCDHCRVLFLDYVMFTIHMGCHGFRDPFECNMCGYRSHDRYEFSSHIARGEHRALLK
UniProt Q9UKS7, whole entry: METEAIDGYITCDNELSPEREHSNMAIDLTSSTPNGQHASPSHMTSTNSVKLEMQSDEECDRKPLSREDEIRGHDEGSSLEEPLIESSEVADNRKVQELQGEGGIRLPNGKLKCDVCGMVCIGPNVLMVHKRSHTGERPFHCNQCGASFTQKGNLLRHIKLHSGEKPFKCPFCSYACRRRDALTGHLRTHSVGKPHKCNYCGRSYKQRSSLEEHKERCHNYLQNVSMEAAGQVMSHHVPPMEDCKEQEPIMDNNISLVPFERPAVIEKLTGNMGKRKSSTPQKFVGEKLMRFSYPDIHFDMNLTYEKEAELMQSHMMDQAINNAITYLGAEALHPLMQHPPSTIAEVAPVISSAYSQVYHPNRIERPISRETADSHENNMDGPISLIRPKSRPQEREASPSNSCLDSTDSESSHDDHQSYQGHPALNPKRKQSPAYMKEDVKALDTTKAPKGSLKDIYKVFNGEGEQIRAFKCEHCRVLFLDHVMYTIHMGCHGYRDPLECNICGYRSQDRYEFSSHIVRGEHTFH
UniProt P30291, whole entry: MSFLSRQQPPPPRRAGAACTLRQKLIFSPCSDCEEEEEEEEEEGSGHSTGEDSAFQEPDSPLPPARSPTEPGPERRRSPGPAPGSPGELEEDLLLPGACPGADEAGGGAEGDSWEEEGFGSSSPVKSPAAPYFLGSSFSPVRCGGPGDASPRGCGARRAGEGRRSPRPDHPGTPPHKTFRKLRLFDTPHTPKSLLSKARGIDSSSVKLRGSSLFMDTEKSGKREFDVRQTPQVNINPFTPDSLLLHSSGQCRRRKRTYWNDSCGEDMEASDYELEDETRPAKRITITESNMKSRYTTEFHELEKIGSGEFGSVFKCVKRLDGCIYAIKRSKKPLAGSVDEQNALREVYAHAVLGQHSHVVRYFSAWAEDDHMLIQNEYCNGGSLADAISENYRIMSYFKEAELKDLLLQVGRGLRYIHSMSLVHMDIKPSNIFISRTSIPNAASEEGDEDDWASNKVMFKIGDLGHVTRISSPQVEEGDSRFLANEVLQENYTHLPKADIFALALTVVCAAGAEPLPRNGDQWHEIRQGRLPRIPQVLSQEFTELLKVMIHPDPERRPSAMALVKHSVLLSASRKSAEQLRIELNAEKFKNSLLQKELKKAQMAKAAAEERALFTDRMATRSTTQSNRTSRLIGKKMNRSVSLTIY
UniProt Q13422, whole entry: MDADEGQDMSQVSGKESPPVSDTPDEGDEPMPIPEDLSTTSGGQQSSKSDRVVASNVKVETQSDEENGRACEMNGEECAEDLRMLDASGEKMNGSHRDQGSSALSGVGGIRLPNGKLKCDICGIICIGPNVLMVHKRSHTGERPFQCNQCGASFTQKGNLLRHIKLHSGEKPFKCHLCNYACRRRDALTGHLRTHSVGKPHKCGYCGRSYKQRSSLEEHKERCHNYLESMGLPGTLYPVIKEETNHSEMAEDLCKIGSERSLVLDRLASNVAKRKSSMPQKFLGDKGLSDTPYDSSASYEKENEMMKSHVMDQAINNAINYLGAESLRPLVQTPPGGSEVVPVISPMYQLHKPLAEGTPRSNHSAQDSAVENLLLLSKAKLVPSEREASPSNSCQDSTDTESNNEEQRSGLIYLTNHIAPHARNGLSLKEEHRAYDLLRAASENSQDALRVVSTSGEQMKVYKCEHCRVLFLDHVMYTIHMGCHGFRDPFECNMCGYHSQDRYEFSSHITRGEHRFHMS
UniProt P48729, whole entry: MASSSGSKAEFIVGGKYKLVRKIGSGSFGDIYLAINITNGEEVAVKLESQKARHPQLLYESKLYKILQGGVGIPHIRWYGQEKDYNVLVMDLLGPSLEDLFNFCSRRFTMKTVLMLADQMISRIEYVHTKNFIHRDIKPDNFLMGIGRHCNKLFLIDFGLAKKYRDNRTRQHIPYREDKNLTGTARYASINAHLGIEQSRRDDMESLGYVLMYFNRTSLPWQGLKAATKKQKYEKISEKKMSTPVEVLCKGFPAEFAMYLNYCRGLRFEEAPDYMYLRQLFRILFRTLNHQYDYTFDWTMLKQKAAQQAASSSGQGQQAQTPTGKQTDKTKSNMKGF
UniProt Q16531, whole entry partner: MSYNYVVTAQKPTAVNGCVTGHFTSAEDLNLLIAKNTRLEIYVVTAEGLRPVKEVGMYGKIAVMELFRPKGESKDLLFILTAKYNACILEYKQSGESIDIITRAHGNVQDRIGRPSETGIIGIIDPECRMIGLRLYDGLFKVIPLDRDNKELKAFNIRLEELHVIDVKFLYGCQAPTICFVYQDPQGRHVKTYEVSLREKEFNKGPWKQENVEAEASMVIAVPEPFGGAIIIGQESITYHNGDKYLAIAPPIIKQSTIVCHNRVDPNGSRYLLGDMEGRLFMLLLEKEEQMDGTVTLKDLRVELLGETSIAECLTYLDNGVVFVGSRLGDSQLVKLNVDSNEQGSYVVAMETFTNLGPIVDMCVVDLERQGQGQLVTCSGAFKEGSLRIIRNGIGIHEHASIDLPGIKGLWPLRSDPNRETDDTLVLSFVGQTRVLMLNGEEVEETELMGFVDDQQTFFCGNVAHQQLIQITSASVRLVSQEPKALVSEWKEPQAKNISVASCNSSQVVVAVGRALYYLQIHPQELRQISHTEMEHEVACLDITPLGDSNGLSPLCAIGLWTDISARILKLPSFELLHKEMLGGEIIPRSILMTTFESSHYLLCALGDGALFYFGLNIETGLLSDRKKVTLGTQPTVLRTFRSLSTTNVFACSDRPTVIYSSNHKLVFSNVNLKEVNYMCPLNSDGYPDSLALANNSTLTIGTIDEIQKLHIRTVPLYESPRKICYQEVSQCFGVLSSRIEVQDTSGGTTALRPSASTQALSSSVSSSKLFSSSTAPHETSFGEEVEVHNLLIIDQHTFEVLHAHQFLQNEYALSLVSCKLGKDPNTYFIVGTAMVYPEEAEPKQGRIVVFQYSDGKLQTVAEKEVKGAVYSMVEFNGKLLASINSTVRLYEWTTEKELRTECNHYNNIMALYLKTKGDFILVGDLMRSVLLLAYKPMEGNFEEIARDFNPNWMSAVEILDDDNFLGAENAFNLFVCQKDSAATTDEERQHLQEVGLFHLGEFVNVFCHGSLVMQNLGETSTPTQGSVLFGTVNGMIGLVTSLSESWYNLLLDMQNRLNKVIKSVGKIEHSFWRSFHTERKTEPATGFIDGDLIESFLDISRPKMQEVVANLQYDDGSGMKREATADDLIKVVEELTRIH

Tests used:
GSPT1 = GSPT1 (Homo sapiens, UniProt P15170+Q96SW2); test: Western blot assay of substrate protein degradation in hPBMCs; conditions: 24 hours treatment, compounds at 50 nM and 500 nM (concentration behind the class not stated)
IKZF3 = IKZF3 (Homo sapiens, UniProt Q96SW2+Q9UKT9); test: as above; conditions: 24 hours treatment, compounds at 50 nM and 500 nM (concentration behind the class not stated)
IKZF2 = IKZF2 (Homo sapiens, UniProt Q96SW2+Q9UKS7); test: as above; conditions: 24 hours treatment, compounds at 50 nM and 500 nM (concentration behind the class not stated)
WEE1 = WEE1 (Homo sapiens, UniProt P30291+Q96SW2); test: as above; conditions: 24 hours treatment, compounds at 50 nM and 500 nM (concentration behind the class not stated)
IKZF1 = IKZF1 (Homo sapiens, UniProt Q13422+Q96SW2); test: as above; conditions: 24 hours treatment, compounds at 50 nM and 500 nM (concentration behind the class not stated)
CK1α = CK1α (Homo sapiens, UniProt P48729+Q96SW2); test: as above; conditions: 24 hours treatment, compounds at 50 nM and 500 nM (concentration behind the class not stated)
[1] = test system: Human colon cancer cell (SW620); test: Tumor cell proliferation inhibition (cell viability assay); conditions: SW620 cells, 96 hours
[2] = test system: Human multiple myeloma cell (MM.1S); test: as above; conditions: MM.1S cells, 96 hours
[3] = test system: Human myeloid monocytic leukemia cell (MV-4-11); test: as above; conditions: MV-4-11 cells, 96 hours
CRBN = CRBN (Homo sapiens, UniProt Q96SW2); test: CRBN binding affinity by HTRF (CEREBLON BINDING kit); conditions: for Inhibition Rate at 0.5 µM (%) / Inhibition Rate at 2 µM (%): CRBN binding, HTRF; for Inhibition Rate at 0.5 µM (%): compound at 0.5 µM; for Inhibition Rate at 2 µM (%): compound at 2 µM
IL-2 = test: Inflammatory cytokine release from PBMCs induced by PHA (flow cytometry CBA); conditions: PBMCs, PHA 1 µg/mL, 24 h
TNF-α = test: as above; conditions: PHA 1 µg/mL, 24 h
[4] = test system: Human acute T lymphocytic leukemia cell (Molt4); test: Tumor cell proliferation inhibition (cell viability assay); conditions: Molt4 cells, 96 hours

| Inhibition Rate at 0.5 µM (%) (CRBN) | Inhibition Rate at 2 µM (%) (CRBN) | Structure (SMILES) | substrate protein remaining % (GSPT1) (GSPT1) | substrate protein remaining % (IKZF3) (IKZF3) | substrate protein remaining % (IKZF2) (IKZF2) | substrate protein remaining % (WEE1) (WEE1) | substrate protein remaining % (IKZF 1) (IKZF1) | substrate protein remaining % (CK1a) (CK1α) | Inhibition Rate at 10 nM (%) [3] | Inhibition Rate at 500 nM (%) [3] | Inhibition Rate (%) IL-2 (IL-2; 0.1 µM) | Inhibition Rate (%) IL-2 (IL-2; 1 µM) | Inhibition Rate (%) TNF-α (TNF-α; 0.1 µM) | Inhibition Rate (%) TNF-α (TNF-α; 1 µM) | Inhibition Rate at 10 nM (%) [4] | Inhibition Rate at 500 nM (%) [4] | also measured |
| --- | --- | --- | --- | --- | --- | --- | --- | --- | --- | --- | --- | --- | --- | --- | --- | --- | --- |
| a4 (40% < a4 ≤ 53%) | a6 (60% < a6 ≤ 70%) | O=C1CCC(N2Cc3cc(CCCN4CCC(N5CCN(c6cccc(Cl)c6Cl)CC5)C(F)(F)C4)ccc3C2=O)C(=O)N1 (centres unmarked) | A (0% ≤ substrate protein remaining % ≤ 80%) | B (80%< substrate protein remaining %≤ 100%) | B (80%< substrate protein remaining %≤ 100%) | A (0% ≤ substrate protein remaining % ≤ 80%) | A (0% ≤ substrate protein remaining % ≤ 80%) | A (0% ≤ substrate protein remaining % ≤ 80%) | 1a4 (20% ≤ 1a4 < 30%) | 1a8 (60% ≤ 1a8 < 70%) | – | – | – | – | – | – | Inhibition Rate at 10 nM (%) [1]: 1d3 (10% ≤ 1d3 < 20%); Inhibition Rate at 500 nM (%) [1]: 1d6 (40% ≤ 1d6 < 50%); Inhibition Rate at 10 nM (%) ([2]; 10 nM): 1b4 (20% ≤ 1b4 < 32%); Inhibition Rate at 500 nM (%) ([2]; 500 nM): 1b8 (60% ≤ 1b8 < 70%) |
| a3 (30% < a3 ≤ 40%) | a6 (60% < a6 ≤ 70%) | O=C1CCC(N2Cc3ccc(C(=O)N4CCC(N5CCN(c6cccc(Cl)c6Cl)CC5)C(F)(F)C4)cc3C2=O)C(=O)N1 (centres unmarked) | – | – | – | – | – | – | – | – | IV7 (20% < IV7 ≤ 30%) | IV9 (40% < IV9 ≤ 50%) | IV7 (20% < IV7 ≤ 30%) | IV9 (40% < IV9 ≤ 50%) | – | – | – |
| a2 (20% < a2 ≤ 30%) | a5 (53% < a5 ≤ 60%) | O=C1CCC(N2Cc3ccc(CN4CCC(N5CCN(C(c6ccccc6)c6ccccc6)CC5)C(F)(F)C4)cc3C2=O)C(=O)N1 (centres unmarked) | – | – | – | – | – | – | – | – | IV10 (50% < IV 10 ≤ 60%) | IV9 (40% < IV9 ≤ 50%) | IV9 (40% < IV9 ≤ 50%) | IV9 (40% < IV9 ≤ 50%) | – | – | – |
| – | – | O=C1CCN(N2C(=O)c3ccc(CN4CCC(N5CC=C(c6cccc(Cl)c6Cl)CC5)C(F)(F)C4)cc3C2=O)C(=O)N1 (centres unmarked) | A (0% ≤ substrate protein remaining % ≤ 80%) | B (80%< substrate protein remaining %≤ 100%) | B (80%< substrate protein remaining %≤ 100%) | B (80%< substrate protein remaining %≤ 100%) | B (80%< substrate protein remaining %≤ 100%) | B (80%< substrate protein remaining %≤ 100%) | – | – | IV10 (50% < IV 10 ≤ 60%) | – | IV10 (50% < IV 10 ≤ 60%) | IV9 (40% < IV9 ≤ 50%) | – | – | – |
| – | – | O=C1CCN(N2Cc3cc(CN4CCC(N5CCC(c6noc7cc(F)ccc67)CC5)C(F)(F)C4)ccc3C2=O)C(=O)N1 (centres unmarked) | A (0% ≤ substrate protein remaining % ≤ 80%) | B (80%< substrate protein remaining %≤ 100%) | B (80%< substrate protein remaining %≤ 100%) | A (0% ≤ substrate protein remaining % ≤ 80%) | A (0% ≤ substrate protein remaining % ≤ 80%) | B (80%< substrate protein remaining %≤ 100%) | – | – | IV10 (50% < IV 10 ≤ 60%) | IV9 (40% < IV9 ≤ 50%) | IV8 (30% < IV8 ≤ 40%) | – | – | – | – |
| – | – | O=C1CCN(N2Cc3cc(CN4CCC(N5CCN(c6cccc(Cl)c6Cl)CC5)CC4)ccc3C2=O)C(=O)N1 | – | – | – | – | – | – | – | – | IV11 (60% < IV11 ≤ 70%) | – | IV9 (40% < IV9 ≤ 50%) | IV8 (30% < IV8 ≤ 40%) | – | – | – |
| a4 (40% < a4 ≤ 53%) | a8 (80% < a8 ≤100%) | O=C1CCC(N2Cc3cc(C(=O)N4CCC(N5CCC(c6noc7cc(F)ccc67)CC5)C(F)(F)C4)c(F)cc3C2=O)C(=O)N1 (centres unmarked) | A (0% ≤ substrate protein remaining % ≤ 80%) | B (80%< substrate protein remaining %≤ 100%) | B (80%< substrate protein remaining %≤ 100%) | A (0% ≤ substrate protein remaining % ≤ 80%) | B (80%< substrate protein remaining %≤ 100%) | B (80%< substrate protein remaining %≤ 100%) | 1a7 (50% ≤ 1a7 < 60%) | 1a10 (80% ≤ 1a10 < 100%) | – | – | – | – | 1c4 (10% ≤ 1c4 < 20%) | 1c9 (60% ≤ 1c9 < 70%) | – |
| – | – | O=C1CCC(N2C(=O)c3ccc(CN4CCC(N5CCN(c6cccc(Cl)c6Cl)CC5)CC4)cc3C2=O)C(=O)N1 (centres unmarked) | B (80%< substrate protein remaining %≤ 100%) | A (0% ≤ substrate protein remaining % ≤ 80%) | B (80%< substrate protein remaining %≤ 100%) | B (80%< substrate protein remaining %≤ 100%) | B (80%< substrate protein remaining %≤ 100%) | B (80%< substrate protein remaining %≤ 100%) | – | – | IV9 (40% < IV9 ≤ 50%) | IV7 (20% < IV7 ≤ 30%) | IV9 (40% < IV9 ≤ 50%) | IV8 (30% < IV8 ≤ 40%) | – | – | – |
| a3 (30% < a3 ≤ 40%) | a6 (60% < a6 ≤ 70%) | O=C1CCC(N2Cc3cc(C(=O)N4CCC(N5CCN(C(c6ccccc6)c6ccccc6)CC5)C(F)(F)C4)c(F)cc3C2=O)C(=O)N1 (centres unmarked) | – | – | – | – | – | – | 1a3 (10% ≤ 1a3 < 20%) | 1a7 (50% ≤ 1a7 < 60%) | IV10 (50% < IV 10 ≤ 60%) | IV1 0 | – | – | 1c2 (0 < 1c2 < 5%) | 1c7 (40% ≤ 1c7 < 50%) | – |
| – | – | O=C1CCC(N2Cc3cc(CN4CCC(N5CCN(C(c6ccccc6)c6ccccn6)CC5)C(F)(F)C4)ccc3C2=S)C(=O)N1 (centres unmarked) | B (80%< substrate protein remaining %≤ 100%) | A (0% ≤ substrate protein remaining % ≤ 80%) | B (80%< substrate protein remaining %≤ 100%) | B (80%< substrate protein remaining %≤ 100%) | B (80%< substrate protein remaining %≤ 100%) | B (80%< substrate protein remaining %≤ 100%) | – | – | IV12 (70% < IV12 ≤ 80%) | – | IV9 (40% < IV9 ≤ 50%) | IV9 (40% < IV9 ≤ 50%) | – | – | IC50 (CRBN; read-out: HTRF IC50, human Cereblon WT GST-tagged protein, 3 hours at room temperature): 0.5 to 1 µM |
| a4 (40% < a4 ≤ 53%) | a6 (60% < a6 ≤ 70%) | O=C1CCC(N2Cc3cc(C(=O)N4CCC(N5CCN(c6noc7cc(F)ccc67)CC5)C(F)(F)C4)ccc3C2=O)C(=O)N1 (centres unmarked) | A (0% ≤ substrate protein remaining % ≤ 80%) | B (80%< substrate protein remaining %≤ 100%) | B (80%< substrate protein remaining %≤ 100%) | B (80%< substrate protein remaining %≤ 100%) | A (0% ≤ substrate protein remaining % ≤ 80%) | B (80%< substrate protein remaining %≤ 100%) | 1a6 (40% < 1a6 < 50%) | 1a10 (80% ≤ 1a10 < 100%) | – | – | – | – | 1c3 (5% ≤ 1c3 < 10%) | 1c8 (50% ≤ 1c8 < 60%) | – |
| a4 (40% < a4 ≤ 53%) | a7 (70% < a7 ≤80%) | O=C1CCC(N2Cc3c(CN4CCC(N5CC=C(c6cccc(Cl)c6Cl)CC5)C(F)(F)C4)cccc3C2=S)C(=O)N1 (centres unmarked) | A (0% ≤ substrate protein remaining % ≤ 80%) | A (0% ≤ substrate protein remaining % ≤ 80%) | B (80%< substrate protein remaining %≤ 100%) | A (0% ≤ substrate protein remaining % ≤ 80%) | B (80%< substrate protein remaining %≤ 100%) | A (0% ≤ substrate protein remaining % ≤ 80%) | 1a4 (20% ≤ 1a4 < 30%) | 1a10 (80% ≤ 1a10 < 100%) | – | – | – | – | 1c3 (5% ≤ 1c3 < 10%) | 1c8 (50% ≤ 1c8 < 60%) | Inhibition Rate at 10 nM (%) [1]: 1d3 (10% ≤ 1d3 < 20%); Inhibition Rate at 500 nM (%) [1]: 1d6 (40% ≤ 1d6 < 50%) |
